Assay: Solubility in water
Type: physicochemical
Details: for solubility in water (in words): room temperature

cis-diamminechloroguanosineplatinum chloride [cis-[Pt(NH3)2 Cl(Guanosine)]Cl]
solubility in water (ambient temperature): 2.6 mg/mL | solubility in water (in words): slightly soluble in water

cis-diamminediguanosineplatinum chloride [cis-[Pt(NH3)2 (Guanosine)2]Cl2]
solubility in water (in words): slightly soluble in water

Source: patent publication US5922689A, “Cisplatin analogs for cancer treatment” (Unitech Pharmaceuticals, Inc., priority 1997, dated 1999)
